For one substance, IC50 results are on record in patent US20260256919A1, “BIOENHANCERS” (priority 2022, published 2026).

By UniProt entry, the sequences of proteins in these tests, tags left out.
UniProt P05177, whole entry: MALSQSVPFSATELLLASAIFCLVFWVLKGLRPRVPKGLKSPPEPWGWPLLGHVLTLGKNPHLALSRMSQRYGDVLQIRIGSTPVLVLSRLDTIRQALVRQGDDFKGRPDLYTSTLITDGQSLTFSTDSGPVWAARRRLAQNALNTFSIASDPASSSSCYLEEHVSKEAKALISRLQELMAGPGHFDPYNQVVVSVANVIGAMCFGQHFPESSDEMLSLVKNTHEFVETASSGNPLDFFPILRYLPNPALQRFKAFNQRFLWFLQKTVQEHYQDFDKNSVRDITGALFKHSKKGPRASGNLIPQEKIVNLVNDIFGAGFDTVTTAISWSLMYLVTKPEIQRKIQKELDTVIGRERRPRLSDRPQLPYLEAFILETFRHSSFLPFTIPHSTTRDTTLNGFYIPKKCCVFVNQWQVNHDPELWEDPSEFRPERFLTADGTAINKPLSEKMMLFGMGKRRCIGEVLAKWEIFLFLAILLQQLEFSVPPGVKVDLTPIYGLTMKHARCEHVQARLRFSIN

This series has as its target CYP1A2 (Homo sapiens, UniProt P05177). To be noted: microsomes.

In turn, phenylcapsaicyn showed a half-maximal inhibitory concentration (IC50) of 670 nM.
